Measured values published in paper PMC10175095 (Therapeutic drug monitoring, 2023).

What was measured:
[1] = Reinjection stability in final extract; type: physicochemical; details: reinjected, 4°C, autosampler, 25.95 h, nominal 15 ng/mL
[2] = Long-term stability of unprocessed plasma samples at −80°C; type: in vitro ADME; details: human plasma, 12 months, nominal 150 ng/mL

With `CCN1CCN(Cc2ccc(Nc3ncc(F)c(-c4cc(F)c5nc(C)n(C(C)C)c5c4)n3)nc2)CC1` [Abemaciclib, abemaciclib] the “Accuracy vs. nominal concentration” value [1] was 109% and the “Accuracy vs. nominal concentration” value [2] was 109%.
